ChEMBL document CHEMBL5058646 (2022)

Chains of the proteins cited; added tags and fusions are not shown. Lines headed by an entry give the natural chain unless they say otherwise; changes in a name come on top.
UniProt Q99640: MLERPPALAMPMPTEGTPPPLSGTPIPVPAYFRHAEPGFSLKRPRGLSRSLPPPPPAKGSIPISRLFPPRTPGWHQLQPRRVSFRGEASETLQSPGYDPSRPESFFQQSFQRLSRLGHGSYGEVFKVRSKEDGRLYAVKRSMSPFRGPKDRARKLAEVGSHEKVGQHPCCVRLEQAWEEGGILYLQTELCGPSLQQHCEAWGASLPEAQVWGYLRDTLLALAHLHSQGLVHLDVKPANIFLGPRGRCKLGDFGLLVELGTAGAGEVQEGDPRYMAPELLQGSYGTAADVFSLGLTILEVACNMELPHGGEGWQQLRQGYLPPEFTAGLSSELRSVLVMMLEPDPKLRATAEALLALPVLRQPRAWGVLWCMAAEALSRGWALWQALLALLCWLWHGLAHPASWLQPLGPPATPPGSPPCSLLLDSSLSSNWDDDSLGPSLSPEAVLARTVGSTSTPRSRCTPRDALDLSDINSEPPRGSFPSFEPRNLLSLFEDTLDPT

Assays:
[1] = target: T1, Zinc finger and BTB domain-containing protein 24 (Homo sapiens) (UniProt O43167); settings: OCI-Ly1
T1 sequence (whole entry): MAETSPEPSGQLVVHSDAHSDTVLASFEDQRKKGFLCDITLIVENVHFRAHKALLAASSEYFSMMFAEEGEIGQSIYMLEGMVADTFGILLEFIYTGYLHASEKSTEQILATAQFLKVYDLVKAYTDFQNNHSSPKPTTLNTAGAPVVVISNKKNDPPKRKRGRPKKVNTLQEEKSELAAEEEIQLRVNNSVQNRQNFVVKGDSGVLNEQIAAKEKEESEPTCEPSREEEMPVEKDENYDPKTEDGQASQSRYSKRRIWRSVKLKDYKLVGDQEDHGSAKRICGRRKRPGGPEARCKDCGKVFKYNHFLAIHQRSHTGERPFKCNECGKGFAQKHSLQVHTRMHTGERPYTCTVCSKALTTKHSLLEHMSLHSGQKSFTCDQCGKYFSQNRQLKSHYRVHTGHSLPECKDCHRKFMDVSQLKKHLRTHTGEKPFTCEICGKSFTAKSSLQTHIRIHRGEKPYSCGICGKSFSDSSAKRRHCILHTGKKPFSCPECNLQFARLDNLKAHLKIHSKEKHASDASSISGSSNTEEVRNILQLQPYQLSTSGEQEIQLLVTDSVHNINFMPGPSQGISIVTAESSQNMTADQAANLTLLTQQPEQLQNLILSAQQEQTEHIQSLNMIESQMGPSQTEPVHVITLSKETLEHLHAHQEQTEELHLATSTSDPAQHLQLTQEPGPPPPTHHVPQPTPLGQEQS

[2] = target: Membrane-associated tyrosine- and threonine-specific cdc2-inhibitory kinase (Homo sapiens) (UniProt Q99640); settings: Compound concentration 20.0 uM
[3] = target: T2, Zinc finger and BTB domain-containing protein 10 (Homo sapiens) (UniProt Q96DT7); settings: OCI-Ly1
T2 sequence (whole entry): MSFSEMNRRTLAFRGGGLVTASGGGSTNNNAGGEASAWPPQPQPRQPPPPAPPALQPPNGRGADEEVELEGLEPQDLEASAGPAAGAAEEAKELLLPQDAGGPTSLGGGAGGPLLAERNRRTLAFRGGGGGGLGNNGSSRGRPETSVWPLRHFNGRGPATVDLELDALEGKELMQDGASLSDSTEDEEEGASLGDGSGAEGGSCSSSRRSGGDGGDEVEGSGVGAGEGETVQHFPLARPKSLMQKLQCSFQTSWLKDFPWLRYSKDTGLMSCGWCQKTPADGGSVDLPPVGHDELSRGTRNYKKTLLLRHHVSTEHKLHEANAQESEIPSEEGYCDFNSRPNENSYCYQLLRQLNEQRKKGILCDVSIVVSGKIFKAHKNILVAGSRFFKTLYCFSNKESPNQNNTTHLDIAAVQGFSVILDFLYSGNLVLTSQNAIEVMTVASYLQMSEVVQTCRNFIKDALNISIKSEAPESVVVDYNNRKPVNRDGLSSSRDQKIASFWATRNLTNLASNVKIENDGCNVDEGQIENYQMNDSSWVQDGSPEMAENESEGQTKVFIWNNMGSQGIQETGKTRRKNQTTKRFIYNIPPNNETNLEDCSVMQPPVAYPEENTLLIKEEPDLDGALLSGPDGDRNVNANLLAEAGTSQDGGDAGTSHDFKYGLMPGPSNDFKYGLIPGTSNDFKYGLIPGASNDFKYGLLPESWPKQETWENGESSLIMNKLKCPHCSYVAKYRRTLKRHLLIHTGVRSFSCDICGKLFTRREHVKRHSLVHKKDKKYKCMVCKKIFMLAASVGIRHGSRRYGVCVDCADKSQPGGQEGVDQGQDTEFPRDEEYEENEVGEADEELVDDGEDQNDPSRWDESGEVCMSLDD

[4] = target: T3, Transcriptional regulator Kaiso (Homo sapiens) (UniProt Q86T24); settings: OCI-Ly1
T3 sequence (whole entry): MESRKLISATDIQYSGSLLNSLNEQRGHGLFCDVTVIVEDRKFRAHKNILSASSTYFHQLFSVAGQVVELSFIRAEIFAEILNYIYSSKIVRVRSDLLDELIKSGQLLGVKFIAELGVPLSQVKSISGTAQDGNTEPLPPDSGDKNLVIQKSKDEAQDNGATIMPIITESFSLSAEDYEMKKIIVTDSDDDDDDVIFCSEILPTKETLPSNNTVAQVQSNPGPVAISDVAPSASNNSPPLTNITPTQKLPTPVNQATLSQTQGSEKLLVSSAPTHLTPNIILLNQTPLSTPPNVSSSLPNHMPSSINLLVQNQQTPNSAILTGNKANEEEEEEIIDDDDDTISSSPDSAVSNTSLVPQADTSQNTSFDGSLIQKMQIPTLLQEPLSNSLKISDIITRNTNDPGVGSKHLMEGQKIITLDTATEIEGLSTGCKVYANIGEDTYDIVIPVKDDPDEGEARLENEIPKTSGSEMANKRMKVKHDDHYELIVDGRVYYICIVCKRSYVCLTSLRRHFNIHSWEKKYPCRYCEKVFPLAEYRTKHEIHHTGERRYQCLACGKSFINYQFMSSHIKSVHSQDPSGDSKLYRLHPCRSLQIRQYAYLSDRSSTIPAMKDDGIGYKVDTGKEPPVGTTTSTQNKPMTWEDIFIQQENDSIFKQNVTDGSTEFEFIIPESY

[5] = target: T4, Protein archease (Homo sapiens) (UniProt Q8IWT0); settings: SUD4
T4 sequence (whole entry): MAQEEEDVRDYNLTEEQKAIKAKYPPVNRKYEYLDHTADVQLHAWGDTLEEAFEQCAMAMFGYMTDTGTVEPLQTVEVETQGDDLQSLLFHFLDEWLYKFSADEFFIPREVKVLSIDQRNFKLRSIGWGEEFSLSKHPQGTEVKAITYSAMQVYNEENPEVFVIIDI

Normalized abundances for DMSO [1]: 39.1
Normalized abundances for compound [1]: 36.2
Tm [2]: 49 °C
Normalized abundances for DMSO [3]: 346
Normalized abundances for compound [3]: 371
Normalized abundances for DMSO [4]: 142
Normalized abundances for compound [4]: 133
Normalized abundances for DMSO [5]: 1470
Normalized abundances for compound [5]: 1500
SMILES: C[C@@H]1CN(c2ncc(Cl)c(Nc3ccc4c(c3)n(CCC(C)(C)O)c(=O)n4C)n2)C[C@H](C)C1(F)F
